The results in this text go back to publication PMC7115498 (European Journal of Medicinal Chemistry, 2009).

The data set concerns MT-4 cells. Particulars: MTT method. For orientation: Tetrazolium dyes change colour on reduction, which living cells bring about.
[1] abbreviates: IIIB experiments P3.4401 and P3.4406.
The mark [2] stands for this setting: ROD experiments P3.4402 and P3.4407.

SMILES strings stand for the structures. Read-outs that look alike come from different tables or passages of the source.

For the molecule `CCCCCCCCCC(=O)Oc1ccc(/C=C/C(=O)CC(=O)/C=C/c2ccc(OC(=O)CCCCCCCCC)c(OC)c2)cc1OC` [Compound 3, 1,7-Bis-[(4,4-di-O-decanoyl)3-methoxyphenyl]-1,6-heptadiene-3,5-dione], the half-maximal cytotoxic concentration (CC50) runs as follows: under setting [1], 91 nM; under setting [2], 44 nM.
As for `COc1cc(/C=C/C(=O)CC(=O)/C=C/c2ccc(O)c(OC)c2)ccc1O` [Curcumin, 1,7-bis(4-hydroxy-3-methoxyphenyl)-1,6-heptadiene-3,5-dione, reference compound], the CC50 reads like this: under setting [1], 34 nM; under setting [2], 39 nM.

Usually CC50 stands for the concentration giving 50% cytotoxicity.
